This assay addresses EGFR (UniProt P00533).

Sequences of proteins named here, by UniProt entry; tags and fusion partners are left off.
UniProt P00533, whole entry, looked up: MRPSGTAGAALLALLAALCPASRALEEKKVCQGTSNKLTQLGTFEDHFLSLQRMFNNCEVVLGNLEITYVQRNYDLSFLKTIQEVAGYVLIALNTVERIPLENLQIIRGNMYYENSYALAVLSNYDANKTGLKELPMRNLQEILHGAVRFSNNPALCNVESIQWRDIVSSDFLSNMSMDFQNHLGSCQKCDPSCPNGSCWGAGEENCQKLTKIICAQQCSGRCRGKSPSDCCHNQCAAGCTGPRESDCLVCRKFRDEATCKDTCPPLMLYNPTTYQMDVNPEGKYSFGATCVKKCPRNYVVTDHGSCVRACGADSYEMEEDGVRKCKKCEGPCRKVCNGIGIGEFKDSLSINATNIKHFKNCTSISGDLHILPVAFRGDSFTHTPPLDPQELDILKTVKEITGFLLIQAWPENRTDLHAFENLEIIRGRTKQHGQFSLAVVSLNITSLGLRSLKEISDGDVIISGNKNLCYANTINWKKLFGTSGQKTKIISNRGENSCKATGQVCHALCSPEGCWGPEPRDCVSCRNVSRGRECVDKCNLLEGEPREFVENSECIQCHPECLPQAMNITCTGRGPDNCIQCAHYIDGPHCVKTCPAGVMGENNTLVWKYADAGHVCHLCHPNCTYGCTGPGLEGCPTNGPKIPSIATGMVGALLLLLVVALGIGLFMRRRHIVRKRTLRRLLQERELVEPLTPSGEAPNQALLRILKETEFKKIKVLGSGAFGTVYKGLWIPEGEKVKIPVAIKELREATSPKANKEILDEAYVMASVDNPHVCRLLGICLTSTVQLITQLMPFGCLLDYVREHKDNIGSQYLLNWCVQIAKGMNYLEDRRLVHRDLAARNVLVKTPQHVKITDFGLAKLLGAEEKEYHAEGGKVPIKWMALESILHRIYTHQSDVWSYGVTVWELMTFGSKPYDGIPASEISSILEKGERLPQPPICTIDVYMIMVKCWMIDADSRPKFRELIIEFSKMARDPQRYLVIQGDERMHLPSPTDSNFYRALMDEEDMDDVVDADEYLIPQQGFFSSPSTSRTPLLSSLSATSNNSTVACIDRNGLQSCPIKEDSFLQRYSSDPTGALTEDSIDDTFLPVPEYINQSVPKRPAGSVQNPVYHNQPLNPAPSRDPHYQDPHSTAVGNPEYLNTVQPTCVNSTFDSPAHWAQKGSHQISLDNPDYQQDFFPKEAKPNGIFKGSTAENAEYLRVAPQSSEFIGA

pIC50: −log10 of the molar value.

As a reminder, the pIC50 is the IC50 on a negative log10 scale, so that one unit is a factor of ten. A lower pIC50 goes with a large IC50. On to `COc1cc2ncnc(Nc3cccc(Cl)c3)c2cc1OC`, for which the pIC50 is 8.70.
The compound `COc1cc2ncnc(Nc3cccc(F)c3)c2cc1OC` had a pIC50 of 7.22.
